The assay has as its system rats. As to the kind of experiment: i.v. injection into the lateral tail vein of rats, loss of righting reflex / anesthesia. The conditions noted are these: Rat 2 (agitated prior to injection); approximately 15 mg/kg i.v. (lateral tail vein), 16% Cremophor EL in water.

SMILES strings stand for the structures.

The values below come from patent US7951979B2, “2,4,6-trisubstituted phenols having anesthetic properties” (University of Iowa Research Foundation, priority 2006, dated 2011).

On to `CC(C)c1cc(C(O)C(F)(F)F)cc(C(C)C)c1O` (stereo not shown) [Compound 1, 2,6-diisopropyl-4-(2,2,2-trifluoro-1-hydroxy-ethyl)-phenol], for which the “time post-injection at which the rat appeared normal” value is reported as “about 4.75 minutes”.
